## Apparent affinities of Ab-14 variants for a coronavirus HR2 peptide

Reference: Engelhart et al. 2022, doi:10.1038/s41597-022-01779-4. File: FLAb, binding data.

Binding partner: SARS-CoV-2 spike HR2 peptide, sequence PDVDLGDISGINAS.

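In library AAYL49, one, two or three CDR residues were substituted; doubles and triples were drawn at random. The assay is AlphaSeq: two haploid yeast populations carry antibody and antigen on their surface. Mating (16 h, 30 °C) was followed by selection of diploids and sequencing of their barcodes. Read counts were normalised to the haploid input and turned into Kd by a linear fit to BCL2-family pairs of known affinity, for each replicate. Mating was done three times.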

The variants keep the light chain, the linker and the frameworks of Ab-14 (scFv order VH, three GGGGS repeats, VL).
VH: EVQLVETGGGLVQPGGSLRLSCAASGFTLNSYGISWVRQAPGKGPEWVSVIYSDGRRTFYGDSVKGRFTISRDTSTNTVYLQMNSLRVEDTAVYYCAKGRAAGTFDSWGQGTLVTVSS
VL: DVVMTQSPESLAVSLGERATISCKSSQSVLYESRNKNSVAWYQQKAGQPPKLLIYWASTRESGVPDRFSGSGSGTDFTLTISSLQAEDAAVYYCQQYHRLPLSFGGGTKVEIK

The parent's heavy chain CDRs are GFTLNSYGIS, VIYSDGRRTFYGDSVK, GRAAGTFDS; each variant's own CDRs replace them letter for letter. Every variant below is changed at L29 of the VH (sequential numbering). Numbers give log10(Kd / nM), so 0 is 1 nM and 3 is 1 µM. Smaller is tighter. Replicates are averaged; those with no signal do not enter the mean. "no signal" marks a missing value. The strain was present, yet no cells mated with the target were sequenced in any replicate, which points to weak or no binding. For reference, the parent read 0.65 as the reference entry and 4.11 (one replicate of three) as a member of this library. As a blank, each scFv also met three strains without target: over library AAYL49, 15% of these pairings were detected, typically at 4.06 and seldom below 2.83.

GFTNNSYGIS | VIYSDGRRTFYGKSVK | GRAAGTFDE: no signal (0 of 3 replicates).
GFRSNSYGIS | VIYSDGRRQFYGDSVK | GRAAGTFDS: no signal (0 of 3 replicates).
GFTMNSYPAS | VIYSDGRRTFYGDSVK | GRAAGTFDS: no signal (0 of 3 replicates).
GFTWNSYGIS | VIYSDGRRTFYGDSVK | RRAAGTFDS: no signal (0 of 3 replicates).
GFTQMSYGIS | VIYFDGRRTFYGDSVK | GRAAGTFDS: no signal (0 of 3 replicates).
GFTPNSWGIS | VIYVDGRRTFYGDSVK | GRAAGTFDS: no signal (0 of 3 replicates).
GFTDNSYGLS | VIYSDGRRYFYGDSVK | GRAAGTFDS: no signal (0 of 3 replicates).
GFTANSYGIS | VIYSLGRRSFYGDSVK | GRAAGTFDS: 4.64 (3 of 3 replicates).
GFTPNSYGIS | VIYSDGRRTFYGDSVK | GRAACTFDS: 4.26 (2 of 3 replicates).
GGTRNSYGIS | VIISDGRRTFYGDSVK | GRAAGTFDS: no signal (0 of 3 replicates).
GFTCNSYGIS | VIYSDSRRTFYYDSVK | GRAAGTFDS: 3.96 (2 of 3 replicates).
GFTMNSYGIS | VIYSDGRRTGYGDSVG | GRAAGTFDS: no signal (0 of 3 replicates).
VFTYNSYGAS | VIYSDGRRTFYGDSVK | GRAAGTFDS: no signal (0 of 3 replicates).
GFTYNSYGIS | VIYSDGRRTFYRDSVD | GRAAGTFDS: 4.11 (1 of 3 replicates).
GFRGNSYGIS | VIYSDGRRTFYGDSVK | MRAAGTFDS: no signal (0 of 3 replicates).
GFTESSYGIS | VIYSDGRRTFYGDSVK | GRAAGTFDH: no signal (0 of 3 replicates).
GFTDNSSGIS | VIYDDGRRTFYGDSVK | GRAAGTFDS: 3.99 (2 of 3 replicates).
GFTQNSYGIW | VIYSDGRRTFYGDSVK | GRAAGTLDS: 4.49 (1 of 3 replicates).
GFADNSYGIS | VIYSDGRRTFYDDSVK | GRAAGTFDS: 3.05 (3 of 3 replicates).
GFTENSYGIS | WIYSDGRRTFYGDSVK | GRAAHTFDS: no signal (0 of 3 replicates).
GFTWNSYGIS | VIYSDGRFTFYGDSVK | GRANGTFDS: 3.72 (2 of 3 replicates).
GFTCNSYGTS | VIYSDGKRTFYGDSVK | GRAAGTFDS: no signal (0 of 3 replicates).
GFTSNSYGIS | VIYSDGRRYFYGDSVK | GRAAGTFDE: no signal (0 of 3 replicates).
GFTCNSYGIS | VIQSDGRRTFYGDSVK | GRAANTFDS: no signal (0 of 3 replicates).
GFTQNSYGIS | VIYSDGRRTVYGDSVK | GRAAGTPDS: no signal (0 of 3 replicates).
GFTVNSYGIS | KAYSDGRRTFYGDSVK | GRAAGTFDS: no signal (0 of 3 replicates).
GFTENSYKIR | VIYSDGRRTFYGDSVK | GRAAGTFDS: 3.49 (1 of 3 replicates).
LFTQNSYGIS | GIYSDGRRTFYGDSVK | GRAAGTFDS: no signal (0 of 3 replicates).
GFTANSCGIS | VIYSDGRRTFYGDSVK | GRAAGTFDS: 4.84 (3 of 3 replicates).
GFTDNSYGIS | VIYSDGRRNFYGDVVK | GRAAGTFDS: no signal (0 of 3 replicates).
GFTSNSYGIS | VIYSDGRRTFYGDSVK | GNAAGHFDS: no signal (0 of 3 replicates).
GFTENSYGIS | VIYSDGRRTFYGDSVK | NWAAGTFDS: 5.40 (1 of 3 replicates).
GFTKNSYGIK | VIYSDGRRTFYGDSVK | GRAAGLFDS: no signal (0 of 3 replicates).
GFTSNSYGIS | VIYSNGRRTFYGDSVK | GRAYGTFDS: 4.91 (1 of 3 replicates).

Picked from the list: the 3 lowest averages where every replicate gave a value.

The variant GFADNSYGIS | VIYSDGRRTFYDDSVK | GRAAGTFDS gave 3.05 (3 of 3 replicates).
The variant GFTANSYGIS | VIYSLGRRSFYGDSVK | GRAAGTFDS gave 4.64 (3 of 3 replicates).
The variant GFTANSCGIS | VIYSDGRRTFYGDSVK | GRAAGTFDS gave 4.84 (3 of 3 replicates).